Earlier results, collected in patent US20220313828A1, “Use of low-molecular glycosidically bound terminal galactosides and fucosides for bonding to toxins that act as galectins in the treatment of intoxications, in particular ricin intoxications” (published 2022).

System: breast cancer metastases
Settings: reference (6)

Substance: N-(1-deoxy-D-lactulos-1-yl)-L-leucine
- test on breast cancer metastases: successfully tested
